For orientation: IC50 means the point on the concentration scale where inhibition reaches its midpoint. The low end stands for higher potency, the high end for lower potency.

The source of these data is US10118965B2, “Compositions and methods related to anti-EGFR antibody drug conjugates” (LegoChem Biosciences, Inc., priority 2015, dated 2018).

Series [1] relates to MCF-7 cells. Kind of series: In vitro cytotoxicity, SRB assay, MCF-7 cells. The series is classed as cell-based. Conditions: MCF7 (EGFR low), 72 hours. As to the method: (§1) A431 cells, which express high levels of EGFR, and MCF-7 cells, which express low levels of EGFR, were plated at about 1000 cells per well in a 96-well plate in 100 μL of media. HCC-827 cells, which express an intermediate level of EGFR were plated at about 500 cells per well in a 96-well plate in 100 μL of media. The cells were incubated at 37° C. in 5% CO2 for 24 hours. […] The cells were incubated for 72 hours and then fixed for 1 hour at 4° C. after adding 100 μL of ice-cold 10% tricholoracetic acid to each well. Viable cells were counted using SRB dye (Sulphorhodamine, Sigma S 1402) and a Molecular Devices SpectraMax 190 plate reader running Softmax Pro v5, monitoring absorbance at 540 nm (FIG. 12).
On the technique in general: In SRB staining, fixed cells bind dye roughly in proportion to their protein.

Series [2] has as its system HCC-827 cells. Kind of series: In vitro cytotoxicity, SRB assay, HCC-827 cells. To be noted: HCC-827 (EGFR Intermediate: del E746_A750), 72 hours. It is filed as cell-based. As to the method:
as §1

Series [3] can be described thus: Pharmacokinetics in male Sprague Dawley rats (LC/MS/MS). It is filed as in vivo. Conditions: rat, intravenously, 3 mg/kg.
Where [4] appears, read: recalculated excluding the value measured at day 1.

For the substance Erbitux(LC)-G7CVIM, the IC50 in series [1] and in series [2] was greater than 100 nM each time.

As for cetuximab [Erbitux], in series [3], the “Alpha HL” value came out at 0.19 ± 0.10 days, the “Beta HL” value is 8.21 ± 0.99 days and the V1 was determined as 40.19 ± 2.92 mL/kg. In series [3] (setting [4]), the “Beta HL” value was 7.41 ± 0.51 days and the V1 was 41.14 ± 1.81 mL/kg. The substance also displayed an IC50 in series [2] greater than 100 nM.
